These results are taken from patent US20060036073A1, “Neurotrophic and neuroprotective peptides” (priority 2002, published 2006).

The subject of assay [1] is cortical neurons that are obtained from chicken embryos. Nature of the assay: Summary of the screening over all neuroprotection assays. The format is cell-based. On the procedure: Since the targets of the therapy with the peptides presented according to the invention are various neurodegenerative diseases, different model systems for detecting the biological activity of the peptides according to the invention in the case of neurodegenerative diseases were used. Later, the individually used model systems and the results thus achieved are described. […] That is to say, the implementation of the tests was carried out on different days with different cell preparations and by different individuals. For some peptides, two numbers were issued (#1=#23 or #6=#35 or #7=#43), but the results with these peptides were only shown once. […] With some other substances, there were problems in the production, and thus only small amounts were available, and it was not possible to test the substances in all the assays (#12, 14, 17, 35 and #48). […] As could be seen from the figures, the standard deviations, i.e., the fluctuations between the independent experiments, are to some extent quite large. These fluctuations can be attributed to stability problems. These peptides are the peptides that are preferred within the scope of the invention.

For assay [2] the test system is unchanged. Briefly: Chronic disruption of the calcium metabolism by ionomycin, neuron viability by MTT. The format is cell-based. To be noted: ionomycin 10 μM, 24 hours. As to the method: It is common to these biological test systems that cortical neurons that are obtained from chicken embryos are cultivated in culture plates for eight days and then are exposed to a specific noxa (Pettmann et al., Nature 281 (5730): 378-80 [1979]).
To this end, a one-day-old, fertilized hen's egg is incubated for eight days at +12 +/− 0.1° C. and 80 +/− 5% atmospheric humidity. On the embryonal day 0, the eggs are transferred into an incubator and incubated up to the embryonal day 8 at 38 +/− 0.5° C. and 55 +/− 5%. After the brains are removed, the cortices are isolated, homogenized, and neurons are taken into primary culture (culture conditions: Dulbecco's Modified Eagle's Medium, 20% v/v fetal calf serum, 0.01% gentamicin, 1 g/l of glucose, 2 mmol of L-glutamine, +37° C., 5% CO2 and 95% atmospheric humidity). […] After the end of the specified stress period, the proportion of the still living neurons is determined with a metabolic colorimetric assay (the reaction of the yellow chromophore MTT to a blue formazan product is carried out only by living cells).
It is expected that in the case of various neurodegenerative diseases, chronic calcium overloading occurs because of metabolic malfunctions, which ultimately produces cell death via the activation of various enzyme systems. […]

Assay [3] concerns amyloid-beta peptides (β-amyloid 25-35) / nerve cell cultures. Briefly: Amyloid-beta aggregation assay (peptide added to fresh amyloid-beta solution, effect on nerve cell cultures). It is filed as cell-based, chicken. As to the method: Beta-Amyloid peptides represent, in aggregated form, a potent neurotoxin whose addition to the nerve cell cultures results in a quick and progressive cell death. Since beta-amyloid peptides constitute an essential role in the pathogenesis of Alzheimer's disease, this model can be considered especially relevant.
This biological test is a process for testing anti-aggregatory substance potential that is specially developed for this project. The newly synthesized peptides are added directly to a fresh solution of amyloid-beta peptides to prevent the formation of neurotoxic aggregates. The effect that aggregates that still develop have on growth and survival of nerve cell cultures is the measurement parameter.

Molecules are shown by their SMILES.

As to `CSCC[C@H](NC(=O)[C@H](CO)NC(=O)[C@H](CC(C)C)NC(=O)CNC(=O)[C@H](CCCCN)NC(=O)[C@H](CCSC)NC(=O)[C@H](Cc1ccccc1)NC(=O)[C@@H](NC(=O)[C@H](CC(=O)O)NC(=O)[C@@H](N)CCSC)C(C)C)C(=O)N[C@@H](C)C(=O)N[C@@H](CCCCN)C(=O)N[C@@H](CCC(=O)O)C(=O)O` [BH#13, MDVFMKGLSMAKE], in assay [1] (Table 2 summary), the “Active in: (number of assays)” value was 5 of 7. For the same compound, the “increase in cell vitality to” value in assay [2] was “about 150%”.

For `CSCC[C@H](NC(=O)[C@H](CO)NC(=O)[C@H](CC(C)C)NC(=O)CNC(=O)[C@H](CCCCN)NC(=O)[C@H](CCSC)NC(=O)[C@H](Cc1ccccc1)NC(=O)[C@@H](NC(=O)[C@@H](N)CC(=O)O)C(C)C)C(=O)N[C@@H](C)C(=O)N[C@@H](CCCCN)C(=O)N[C@@H](CCC(=O)O)C(=O)NCC(=O)N[C@H](C(=O)O)C(C)C` [BH#1, DVFMKGLSMAKEGV], the “AβP reagg. (diff vs C)” value in assay [3] (difference vs control, only one round of testing) was found to be 23%.

For `CSCC[C@H](NC(=O)[C@H](CO)NC(=O)[C@H](CC(C)C)NC(=O)CNC(=O)[C@H](CCCCN)NC(=O)[C@H](CCSC)NC(=O)[C@H](Cc1ccccc1)NC(=O)[C@@H](NC(=O)[C@@H](N)CC(=O)O)C(C)C)C(=O)N[C@@H](C)C(=O)N[C@@H](CCCCN)C(=O)N[C@@H](CCC(=O)O)C(=O)NCC(=O)O` [BH#24, DVFMKGLSMAKEG], the “increase of neuronal vitality by” value in assay [3] (β-amyloid 25-35, peptide added to fresh amyloid solution) was 44%.

On to `CSCC[C@H](NC(=O)[C@H](CO)NC(=O)[C@H](CC(C)C)NC(=O)CNC(=O)[C@H](CCCCN)NC(=O)[C@H](CCSC)NC(=O)[C@H](Cc1ccccc1)NC(=O)[C@@H](NC(=O)[C@H](CC(=O)O)NC(=O)[C@@H](N)CCSC)C(C)C)C(=O)N[C@@H](C)C(=O)N[C@@H](CCCCN)C(=O)N[C@@H](CCC(=O)O)C(=O)NCC(=O)O` [BH#12, MDVFMKGLSMAKEG], for which the “effectiveness across the screening assays (in words)” value in assay [1] is recorded as “effective in only one screening assay”.
